Laboratory results: patent publication US11242351B2, “Tricyclic inhibitors of the BCL6 BTB domain protein-protein interaction and uses thereof” (priority 2017, dated 2022)

Tested on: Karpas422 cells
Assay: Tumor cell growth inhibition assay
Assay type: cell-based
Conditions: Homo sapiens, KARPAS-422, 144 h, read-out: GI Karpas EC50
Method: Tumor Cell Growth Inhibition Assay:
Karpas422 cells were seeded into a 96-well plate at 2,000 cells/well in 150 μl medium (Alpha-MEM containing 10% FBS, […] Normocin, and […] Gentamycin, Invitrogen). A HP D300 digital dispenser was used to dose cells with DMSO or test compounds across a 10-point range of concentrations (high dose of 5 μM), and cultures were grown in a humidified 5% CO2 incubator at 37° C. After six days, plates were removed from incubator and equilibrated to room temperature. An equal volume of ATPlite assay reagent was added to each well, and samples were processed according to the manufacturer's instructions (Perkin Elmer). The luminescent signal was measured using an Envision plate reader equipped with a US-Luminescence detector.

Question: For COc1c(O)c(C(N)=O)cc(-c2cn(CC(=O)Nc3cc(N4CCN(C)C[C@@H]4C)nc(F)c3Cl)c3nc4n(c(=O)c23)CCC4)c1F [I-15, (S)-5-(1-(2-((3-chloro-6-(2,4-dimethylpiperazin-1-yl)-2-fluoropyridin-4-yl)amino)-2-oxoethyl)-4-oxo-4,6,7,8-tetrahydro-1H-dipyrrolo[1,2-a:2′,3′-d]pyrimidin-3-yl)-4-fluoro-2-hydroxy-3-methoxybenzamide], which EC50 is on record?
Answer: 649 nM

Question: For COc1c(O)c(C(N)=O)cc(-c2cn(CC(=O)Nc3cc(N4CCOC[C@@H]4C)nc(F)c3Cl)c3nc4n(c(=O)c23)CCC4)c1F [I-16, (S)-5-(1-(2-((3-chloro-2-fluoro-6-(3-methyl-morpholino)pyridin-4-yl)amino)-2oxoethyl)-4-oxo-4,6,7,8-tetra-hydro-1H-dipyrrolo [1,2-a:2′,3′-d]pyri-midin-3-yl)-4-fluoro-2-hydroxy-3-methoxy-benzamide], which EC50 is on record?
Answer: 778 nM
